Literature values, collected in patent US20070016968A1, “Treatment of pain through expression of opioid receptors” (priority 2003, published 2007).

By UniProt entry, the sequences of proteins in these tests, tags left out.
UniProt P32300, whole entry: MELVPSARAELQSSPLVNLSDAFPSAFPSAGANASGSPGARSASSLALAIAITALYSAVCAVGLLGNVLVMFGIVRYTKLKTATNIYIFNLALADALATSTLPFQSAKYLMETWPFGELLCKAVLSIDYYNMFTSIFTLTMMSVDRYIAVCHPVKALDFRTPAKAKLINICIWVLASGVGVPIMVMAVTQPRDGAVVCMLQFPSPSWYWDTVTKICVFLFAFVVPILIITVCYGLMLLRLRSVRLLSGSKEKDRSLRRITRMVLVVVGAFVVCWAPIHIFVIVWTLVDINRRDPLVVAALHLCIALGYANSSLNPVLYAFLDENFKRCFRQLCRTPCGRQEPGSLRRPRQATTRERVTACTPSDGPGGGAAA
UniProt P41143, whole entry: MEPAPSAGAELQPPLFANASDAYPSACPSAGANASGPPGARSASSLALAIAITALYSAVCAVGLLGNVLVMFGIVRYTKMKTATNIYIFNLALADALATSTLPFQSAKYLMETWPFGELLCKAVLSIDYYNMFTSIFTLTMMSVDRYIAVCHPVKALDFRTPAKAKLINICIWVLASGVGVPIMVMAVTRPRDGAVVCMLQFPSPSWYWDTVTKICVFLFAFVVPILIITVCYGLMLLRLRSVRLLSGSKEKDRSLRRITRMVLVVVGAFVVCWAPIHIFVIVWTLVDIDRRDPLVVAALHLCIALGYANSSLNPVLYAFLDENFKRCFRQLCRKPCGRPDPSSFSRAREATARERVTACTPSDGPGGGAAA

What was measured:
cloned DOR-1 receptor [1] = biological target: cloned DOR-1 receptor (Mus musculus, UniProt P32300); details: mouse recombinant receptor (Law et al 1994)
cloned DOR-1 receptor [2] = biological target: cloned DOR-1 receptor (Homo sapiens, UniProt P41143); details: human recombinant receptor (Law et al 1994)

In the case of DPDPE, the “binding to recombinant receptor” value (cloned DOR-1 receptor [1]) is listed as “bind” and the “binding to recombinant receptor” value (cloned DOR-1 receptor [2]) is listed as “bind”.
